Results as given in paper PMC2360155, “Novel retinoic acid metabolism blocking agents have potent inhibitory activities on human breast cancer cells and tumour growth” (British Journal of Cancer, 2007).

Chains of the proteins cited; added tags and fusions are not shown.
UniProt P11416, whole entry: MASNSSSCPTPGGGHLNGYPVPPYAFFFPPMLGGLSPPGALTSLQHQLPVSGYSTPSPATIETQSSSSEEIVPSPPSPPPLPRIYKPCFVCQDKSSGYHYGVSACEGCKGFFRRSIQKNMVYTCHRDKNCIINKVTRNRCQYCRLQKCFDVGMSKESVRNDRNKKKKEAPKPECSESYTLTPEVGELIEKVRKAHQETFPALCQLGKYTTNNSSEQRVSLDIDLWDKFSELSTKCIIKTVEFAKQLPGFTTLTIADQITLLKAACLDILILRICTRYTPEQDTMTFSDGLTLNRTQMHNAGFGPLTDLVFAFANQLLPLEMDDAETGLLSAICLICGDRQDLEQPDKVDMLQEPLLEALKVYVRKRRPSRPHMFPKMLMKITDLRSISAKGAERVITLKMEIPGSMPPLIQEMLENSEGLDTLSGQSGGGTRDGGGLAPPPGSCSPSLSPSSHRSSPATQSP
UniProt P62965, whole entry: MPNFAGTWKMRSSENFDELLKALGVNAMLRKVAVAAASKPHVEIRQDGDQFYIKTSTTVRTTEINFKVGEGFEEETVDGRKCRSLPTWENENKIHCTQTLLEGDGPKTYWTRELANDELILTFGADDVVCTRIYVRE

What was measured:
RARα [1] = biological target: T1, RARα (Mus musculus, UniProt P11416); assay: Retinoid receptor competition binding assay, RARα; design: The full-length cDNA clones for RARα, RARβ, RARγ and RXRα were cloned into the prokaryotic expression vector pET29; S-Tag; made in house; host or cells: prokaryotic host (pET29 vector)
CRABPI = biological target: T2, CRABPI (Mus musculus, UniProt P62965); assay: CRABP competition binding assay, CRABPI; conditions: for comparison; read-out: CRAPBI Kd
T2 construct: Wild-type full-length cDNAs for mouse CRABPI and CRABPII were subcloned into the prokaryotic expression vector pRSETB; pRSETB vector fusion leader (purified on Ni-NTA, so a His tag); made in house; host or cells: Escherichia coli BL21(DE3)pLys
Procedure: Wild-type full-length cDNAs for mouse CRABPI and CRABPII were subcloned into the prokaryotic expression vector pRSETB and transformed into Escherichia coli strain BL21(DE3)pLys ([Chen et al, 1995]). Recombinant fusion proteins were prepared essentially as we have described previously using Ni-NTA resin ([Chen et al, 1995]). The binding of each RAMBA to CRABPI and CRABPII was determined by competition binding assays as described previously ([Chen et al, 1995]). […] IC50 values were calculated as described above in the RAR binding studies.

RARα [2] = biological target: T1, RARα; assay: Transactivation assay (RARE-CAT reporter, CV-1 cells), RARα; assay type: cell-based; conditions: 50% of maximal activity obtained with 10^−6 M all-trans-RA
Procedure: Briefly, CV-1 cells were cotransfected with 4 μg RAR subtype (RARα, RARβ or RARγ) expression vector construct in pSG5, 4 μg RARE-CAT reporter DNA and 1 μg pCMV-β-gal DNA. Twenty-four hours following transfection, the cells were treated with various concentrations of each RAMBA ranging from 10^−11–10^−5 M along with an ethanol carrier control. Additional cells were treated with 10^−6 M all-trans-RA for normalisation. Twenty-four hours later, the cells were harvested and CAT and β-gal activities were assayed.

Structure (SMILES): CC1=C(/C=C/C(C)=C/C=C/C(C)=C/C(=O)O)C(C)(C)CCC1 [ATRA, all-trans-retinoic acid, reference compound]
- Kd (RARα [1]): 2 nM
- Kd (CRABPI): 4 nM
- EC50 (RARα [2]): 20 nM
